Data published in patent publication US10087225B2, “Formulation of MK2 inhibitor peptides” (MOERAE MATRIX, INC., priority 2015, dated 2018).

By UniProt entry, the sequences of proteins in these tests, tags left out. Where a name states a change or a piece, a line headed by the entry shows the natural chain unless it says otherwise. Residues count along the entry.
UniProt P06239: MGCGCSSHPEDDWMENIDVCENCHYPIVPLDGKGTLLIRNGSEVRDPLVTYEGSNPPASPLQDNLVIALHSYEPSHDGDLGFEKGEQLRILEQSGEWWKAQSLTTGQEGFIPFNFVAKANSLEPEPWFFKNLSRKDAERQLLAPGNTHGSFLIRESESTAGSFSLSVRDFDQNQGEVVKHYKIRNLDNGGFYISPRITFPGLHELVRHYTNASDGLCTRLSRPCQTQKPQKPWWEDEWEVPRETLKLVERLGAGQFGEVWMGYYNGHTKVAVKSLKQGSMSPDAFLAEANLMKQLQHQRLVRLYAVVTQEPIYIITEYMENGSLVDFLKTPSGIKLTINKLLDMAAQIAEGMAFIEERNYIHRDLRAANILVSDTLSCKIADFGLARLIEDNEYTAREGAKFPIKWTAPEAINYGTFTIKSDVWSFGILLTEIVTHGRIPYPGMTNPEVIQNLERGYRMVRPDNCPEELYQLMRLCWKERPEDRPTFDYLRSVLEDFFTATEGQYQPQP
UniProt O75676: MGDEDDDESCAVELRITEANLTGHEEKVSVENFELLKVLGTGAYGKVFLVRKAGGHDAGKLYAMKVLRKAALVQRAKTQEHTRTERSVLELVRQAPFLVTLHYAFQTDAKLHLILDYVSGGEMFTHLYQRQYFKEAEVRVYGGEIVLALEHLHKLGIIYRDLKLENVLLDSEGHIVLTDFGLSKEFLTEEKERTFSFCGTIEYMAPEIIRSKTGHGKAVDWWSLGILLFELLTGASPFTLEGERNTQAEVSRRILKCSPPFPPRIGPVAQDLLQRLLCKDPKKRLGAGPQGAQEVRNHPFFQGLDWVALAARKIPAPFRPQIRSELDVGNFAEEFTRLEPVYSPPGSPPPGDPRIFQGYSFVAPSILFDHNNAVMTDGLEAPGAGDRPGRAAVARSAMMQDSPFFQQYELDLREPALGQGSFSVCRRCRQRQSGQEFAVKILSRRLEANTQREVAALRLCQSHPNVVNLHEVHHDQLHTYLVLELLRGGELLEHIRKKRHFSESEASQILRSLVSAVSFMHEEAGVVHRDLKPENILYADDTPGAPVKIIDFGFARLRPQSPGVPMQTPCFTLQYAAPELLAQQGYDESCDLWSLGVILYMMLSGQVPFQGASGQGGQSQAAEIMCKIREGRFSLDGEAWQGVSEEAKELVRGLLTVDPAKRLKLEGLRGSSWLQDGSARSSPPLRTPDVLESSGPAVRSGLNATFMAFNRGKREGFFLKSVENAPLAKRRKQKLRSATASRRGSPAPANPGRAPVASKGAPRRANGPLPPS
UniProt P07948: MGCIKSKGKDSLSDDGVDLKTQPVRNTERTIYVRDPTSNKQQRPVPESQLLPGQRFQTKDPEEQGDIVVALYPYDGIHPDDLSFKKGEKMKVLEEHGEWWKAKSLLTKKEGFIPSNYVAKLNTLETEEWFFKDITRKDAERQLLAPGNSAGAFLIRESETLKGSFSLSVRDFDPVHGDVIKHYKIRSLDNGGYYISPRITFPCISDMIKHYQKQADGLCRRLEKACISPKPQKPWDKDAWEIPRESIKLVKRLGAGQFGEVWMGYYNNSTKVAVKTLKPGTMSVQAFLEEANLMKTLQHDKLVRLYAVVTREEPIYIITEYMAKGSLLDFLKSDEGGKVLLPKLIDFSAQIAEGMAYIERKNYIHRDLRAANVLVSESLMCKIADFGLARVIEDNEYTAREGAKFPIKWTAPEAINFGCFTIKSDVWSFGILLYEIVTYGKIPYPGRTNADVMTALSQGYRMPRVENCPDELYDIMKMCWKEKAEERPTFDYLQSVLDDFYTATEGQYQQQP
UniProt Q13043: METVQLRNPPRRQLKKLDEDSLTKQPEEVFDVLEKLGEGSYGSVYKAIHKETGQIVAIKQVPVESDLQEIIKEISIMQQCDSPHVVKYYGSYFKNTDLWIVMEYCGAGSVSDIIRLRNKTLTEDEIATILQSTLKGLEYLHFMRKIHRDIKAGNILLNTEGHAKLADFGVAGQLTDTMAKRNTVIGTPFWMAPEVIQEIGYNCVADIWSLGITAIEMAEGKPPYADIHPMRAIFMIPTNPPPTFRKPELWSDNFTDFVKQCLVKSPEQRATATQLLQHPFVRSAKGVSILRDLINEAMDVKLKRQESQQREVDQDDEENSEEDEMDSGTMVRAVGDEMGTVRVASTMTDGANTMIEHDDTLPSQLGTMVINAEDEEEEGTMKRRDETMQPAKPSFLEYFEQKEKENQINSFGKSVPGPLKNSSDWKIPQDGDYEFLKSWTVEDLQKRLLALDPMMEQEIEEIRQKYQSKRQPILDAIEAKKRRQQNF
UniProt P53778: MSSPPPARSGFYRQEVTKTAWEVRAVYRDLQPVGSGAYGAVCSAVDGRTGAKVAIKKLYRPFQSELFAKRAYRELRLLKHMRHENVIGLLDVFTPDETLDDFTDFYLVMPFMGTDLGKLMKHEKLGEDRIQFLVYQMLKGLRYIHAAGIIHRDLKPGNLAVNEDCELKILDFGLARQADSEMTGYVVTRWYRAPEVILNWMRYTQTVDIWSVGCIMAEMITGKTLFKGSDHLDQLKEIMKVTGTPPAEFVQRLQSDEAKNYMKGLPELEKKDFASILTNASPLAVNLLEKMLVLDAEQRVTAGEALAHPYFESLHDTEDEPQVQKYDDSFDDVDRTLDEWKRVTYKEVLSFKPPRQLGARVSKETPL
UniProt P36888, 27-993: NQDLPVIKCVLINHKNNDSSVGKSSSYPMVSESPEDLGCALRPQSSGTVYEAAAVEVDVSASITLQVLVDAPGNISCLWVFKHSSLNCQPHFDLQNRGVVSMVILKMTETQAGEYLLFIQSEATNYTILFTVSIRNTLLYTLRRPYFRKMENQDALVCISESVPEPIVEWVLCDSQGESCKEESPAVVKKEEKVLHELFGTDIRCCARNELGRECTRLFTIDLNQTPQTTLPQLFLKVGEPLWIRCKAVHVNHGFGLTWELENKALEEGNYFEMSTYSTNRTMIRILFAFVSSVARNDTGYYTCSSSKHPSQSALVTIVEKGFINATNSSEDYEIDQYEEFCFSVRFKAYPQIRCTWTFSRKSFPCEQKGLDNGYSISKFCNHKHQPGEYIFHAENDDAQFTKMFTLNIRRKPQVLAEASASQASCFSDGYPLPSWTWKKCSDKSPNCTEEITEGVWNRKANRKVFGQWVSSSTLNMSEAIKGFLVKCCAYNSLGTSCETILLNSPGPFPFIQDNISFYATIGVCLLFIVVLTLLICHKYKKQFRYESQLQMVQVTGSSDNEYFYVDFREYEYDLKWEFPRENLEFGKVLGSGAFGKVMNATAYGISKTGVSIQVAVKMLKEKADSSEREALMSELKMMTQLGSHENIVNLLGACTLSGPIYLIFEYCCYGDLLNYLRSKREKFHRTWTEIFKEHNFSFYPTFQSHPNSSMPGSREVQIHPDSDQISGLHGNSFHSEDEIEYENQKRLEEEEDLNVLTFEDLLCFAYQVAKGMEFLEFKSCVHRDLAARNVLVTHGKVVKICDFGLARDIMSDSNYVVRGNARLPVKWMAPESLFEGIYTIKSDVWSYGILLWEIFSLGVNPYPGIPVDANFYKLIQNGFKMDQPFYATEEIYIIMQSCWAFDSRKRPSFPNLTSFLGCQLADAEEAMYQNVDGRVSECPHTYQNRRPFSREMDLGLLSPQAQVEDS
UniProt P57059: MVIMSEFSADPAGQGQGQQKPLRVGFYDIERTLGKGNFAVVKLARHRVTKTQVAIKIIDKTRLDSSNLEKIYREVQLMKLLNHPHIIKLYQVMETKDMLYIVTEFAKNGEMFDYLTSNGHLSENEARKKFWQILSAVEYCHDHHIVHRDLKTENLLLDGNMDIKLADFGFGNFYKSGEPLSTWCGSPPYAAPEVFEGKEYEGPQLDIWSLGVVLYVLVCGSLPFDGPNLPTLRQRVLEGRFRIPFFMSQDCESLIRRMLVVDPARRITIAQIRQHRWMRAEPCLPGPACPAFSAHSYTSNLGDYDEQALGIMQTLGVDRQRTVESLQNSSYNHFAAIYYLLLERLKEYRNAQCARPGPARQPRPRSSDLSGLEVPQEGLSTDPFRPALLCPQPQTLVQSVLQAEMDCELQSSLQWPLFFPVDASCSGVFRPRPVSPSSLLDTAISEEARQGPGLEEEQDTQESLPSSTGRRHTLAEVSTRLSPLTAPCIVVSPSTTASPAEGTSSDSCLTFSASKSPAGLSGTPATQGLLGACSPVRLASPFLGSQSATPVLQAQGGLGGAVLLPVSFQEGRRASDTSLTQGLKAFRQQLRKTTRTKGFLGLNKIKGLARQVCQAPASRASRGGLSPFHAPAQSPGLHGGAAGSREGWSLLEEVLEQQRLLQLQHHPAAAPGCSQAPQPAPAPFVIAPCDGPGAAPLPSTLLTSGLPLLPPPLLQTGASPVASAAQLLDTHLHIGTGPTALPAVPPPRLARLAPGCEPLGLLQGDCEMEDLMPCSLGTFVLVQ
UniProt Q16539, whole entry: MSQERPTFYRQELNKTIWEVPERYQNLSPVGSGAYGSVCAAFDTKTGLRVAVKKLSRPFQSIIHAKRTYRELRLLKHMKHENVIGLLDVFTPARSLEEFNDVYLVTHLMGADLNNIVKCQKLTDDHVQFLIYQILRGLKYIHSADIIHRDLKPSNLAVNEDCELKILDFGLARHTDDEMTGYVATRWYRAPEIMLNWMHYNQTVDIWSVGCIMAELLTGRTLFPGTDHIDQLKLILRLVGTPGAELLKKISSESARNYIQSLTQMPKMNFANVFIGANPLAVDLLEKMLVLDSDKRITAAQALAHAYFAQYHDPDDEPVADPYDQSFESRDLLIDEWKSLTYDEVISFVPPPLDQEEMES
UniProt Q9HC98: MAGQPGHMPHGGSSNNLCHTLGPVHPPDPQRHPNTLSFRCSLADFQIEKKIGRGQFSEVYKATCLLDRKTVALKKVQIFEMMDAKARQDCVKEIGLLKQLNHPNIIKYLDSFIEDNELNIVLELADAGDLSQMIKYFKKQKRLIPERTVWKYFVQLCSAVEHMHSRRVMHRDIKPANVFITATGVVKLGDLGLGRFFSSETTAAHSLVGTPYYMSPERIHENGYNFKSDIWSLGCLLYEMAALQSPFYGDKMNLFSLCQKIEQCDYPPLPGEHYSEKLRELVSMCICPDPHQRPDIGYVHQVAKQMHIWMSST
UniProt P08069, 31-1367: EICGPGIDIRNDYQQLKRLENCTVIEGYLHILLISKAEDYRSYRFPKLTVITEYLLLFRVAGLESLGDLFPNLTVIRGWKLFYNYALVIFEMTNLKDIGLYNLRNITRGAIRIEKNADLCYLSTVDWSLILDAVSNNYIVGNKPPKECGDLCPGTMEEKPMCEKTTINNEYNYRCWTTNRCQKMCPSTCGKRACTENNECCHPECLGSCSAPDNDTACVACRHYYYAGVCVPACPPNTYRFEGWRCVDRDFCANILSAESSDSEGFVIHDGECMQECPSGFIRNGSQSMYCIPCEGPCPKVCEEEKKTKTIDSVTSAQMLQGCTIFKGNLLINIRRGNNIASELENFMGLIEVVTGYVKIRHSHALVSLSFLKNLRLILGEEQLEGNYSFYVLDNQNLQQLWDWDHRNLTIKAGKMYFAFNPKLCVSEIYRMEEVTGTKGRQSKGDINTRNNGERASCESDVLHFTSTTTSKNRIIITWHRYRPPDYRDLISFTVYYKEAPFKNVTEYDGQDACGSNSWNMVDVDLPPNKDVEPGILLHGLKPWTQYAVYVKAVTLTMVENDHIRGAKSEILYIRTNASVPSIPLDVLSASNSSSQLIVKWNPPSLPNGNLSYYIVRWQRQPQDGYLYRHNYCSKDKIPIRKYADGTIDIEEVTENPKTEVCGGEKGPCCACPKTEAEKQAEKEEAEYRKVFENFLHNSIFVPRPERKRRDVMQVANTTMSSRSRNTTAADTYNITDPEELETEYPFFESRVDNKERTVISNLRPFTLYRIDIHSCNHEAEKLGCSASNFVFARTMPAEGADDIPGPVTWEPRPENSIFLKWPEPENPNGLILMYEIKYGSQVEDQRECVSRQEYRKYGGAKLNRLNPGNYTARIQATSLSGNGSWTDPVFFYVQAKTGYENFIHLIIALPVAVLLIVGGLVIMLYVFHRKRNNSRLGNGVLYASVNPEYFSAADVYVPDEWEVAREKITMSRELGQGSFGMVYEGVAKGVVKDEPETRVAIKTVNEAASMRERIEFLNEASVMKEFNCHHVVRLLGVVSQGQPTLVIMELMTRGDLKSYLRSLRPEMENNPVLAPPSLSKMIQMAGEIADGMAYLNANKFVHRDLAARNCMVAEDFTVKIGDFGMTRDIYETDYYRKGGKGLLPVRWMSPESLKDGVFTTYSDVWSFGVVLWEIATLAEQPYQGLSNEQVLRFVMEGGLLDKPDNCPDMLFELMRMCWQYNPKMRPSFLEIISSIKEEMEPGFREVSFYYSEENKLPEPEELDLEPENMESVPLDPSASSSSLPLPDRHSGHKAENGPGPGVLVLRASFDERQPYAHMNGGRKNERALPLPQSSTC

Key:
Assay in all cases: Kinase Profiling Assay
Assay type in all cases: biochemical
CLK2(h) = CLK2(h) (Homo sapiens, UniProt P49760)
EphB3(h) = EphB3(h) (Homo sapiens, UniProt P54753)
Syk(h) = Syk(h) (Homo sapiens, UniProt P43405)
Lck(h) = Lck(h) (Homo sapiens, UniProt P06239)
PKCβII(h) = PKCβII(h) (Homo sapiens, UniProt P05771)
CaMKIV(h) = CaMKIV(h) (Homo sapiens, UniProt Q16566)
MSK2(h) = MSK2(h) (Homo sapiens, UniProt O75676)
PKBα(h) = PKBα(h) (Homo sapiens, UniProt P31749)
mTOR/FKBP12(h) = mTOR/FKBP12(h) (Homo sapiens, UniProt P42345)
CK1γ1(h) = CK1γ1(h) (Homo sapiens, UniProt Q9HCP0)
MEK1(h) = MEK1(h) (Homo sapiens, UniProt Q02750)
PDK1(h) = PDK1(h) (Homo sapiens, UniProt O15530)
Pim-1(h) = Pim-1(h) (Homo sapiens, UniProt P11309)
Lyn(h) = Lyn(h) (Homo sapiens, UniProt P07948)
MAPK2(h) = MAPK2(h) (Homo sapiens, UniProt P28482)
FGFR2(h) = FGFR2(h) (Homo sapiens, UniProt P21802)
BTK(h) = BTK(h) (Homo sapiens, UniProt Q06187)
MST1(h) = MST1(h) (Homo sapiens, UniProt Q13043)
SAPK3(h) = SAPK3(h) (Homo sapiens, UniProt P53778)
Flt3(h) = Flt3(h) (Homo sapiens, UniProt P36888)
c-RAF(h) = c-RAF(h) (Homo sapiens, UniProt P04049)
CDK6/cyclinD3(h) = CDK6/cyclinD3(h) (Homo sapiens, UniProt Q00534)
AMPKa1(h) = AMPKa1(h) (Homo sapiens, UniProt Q13131)
SAPK4(h) = SAPK4(h) (Homo sapiens, UniProt O15264)
NEK7(h) = NEK7(h) (Homo sapiens, UniProt Q8TDX7)
SIK(h) = SIK(h) (Homo sapiens, UniProt P57059)
LKB1(h) = LKB1(h) (Homo sapiens, UniProt Q15831)
CK1δ(h) = CK1δ(h) (Homo sapiens, UniProt P48730)
AMPKa2(h) = AMPKa2(h) (Homo sapiens, UniProt P54646)
eEF-2K(h) = eEF-2K(h) (Homo sapiens, UniProt O00418)
SAPK2a(h) = SAPK2a(h) (Homo sapiens, UniProt Q16539)
MST3(h) = MST3(h) (Homo sapiens, UniProt Q9Y6E0)
PDGFRβ(h) = PDGFRβ(h) (Homo sapiens, UniProt P09619)
CDK9/cyclin T1(h) = CDK9/cyclin T1(h) (Homo sapiens, UniProt P50750)
NEK6(h) = NEK6(h) (Homo sapiens, UniProt Q9HC98)
VRK2(h) = VRK2(h) (Homo sapiens, UniProt Q86Y07)
IRAK1(h) = IRAK1(h) (Homo sapiens, UniProt P51617)
IGF-1R(h) = IGF-1R(h) (Homo sapiens, UniProt P08069)
Met(D1246N)(h) = Met(D1246N)(h) (Homo sapiens, UniProt P08581, D1228N)
PKCβI(h) = PKCβI(h) (Homo sapiens, UniProt P05771)
Tie2(R849W)(h) = Tie2(R849W)(h) (Homo sapiens, UniProt Q02763, R849W)

Question: `CC(C)C[C@H](NC(=O)[C@H](C)NC(=O)[C@H](CCCCN)NC(=O)[C@H](C)NC(=O)[C@H](CCCNC(=N)N)NC(=O)[C@H](C)NC(=O)[C@H](CCC(N)=O)NC(=O)[C@H](CCCNC(=N)N)NC(=O)[C@H](C)NC(=O)[C@H](C)NC(=O)[C@H](C)NC(=O)[C@H](CCCNC(=N)N)NC(=O)[C@H](C)NC(=O)[C@@H](N)Cc1ccc(O)cc1)C(=O)N[C@@H](C)C(=O)N[C@@H](CCCNC(=N)N)C(=O)N[C@@H](CCC(N)=O)C(=O)N[C@@H](CC(C)C)C(=O)NCC(=O)N[C@H](C(=O)N[C@@H](C)C(=O)N[C@@H](C)C(=O)O)C(C)C` [MMI-0100] was tested. Which activity at 100 µM (CLK2(h)) did it give?
Answer: 88%

Question: And the activity at 100 µM (EphB3(h))?
Answer: 109%

Question: What about the activity at 100 µM (Syk(h)) of the same molecule?
Answer: 45%

Question: And the activity at 100 µM (Lck(h))?
Answer: 346%

Question: And the activity at 100 µM (PKCβII(h))?
Answer: 102%

Question: And the activity at 100 µM (CaMKIV(h))?
Answer: 87%

Question: What about the activity at 100 µM (MSK2(h)) of the same molecule?
Answer: 105%

Question: And the activity at 100 µM (PKBα(h))?
Answer: 140%

Question: And the activity at 100 µM (mTOR/FKBP12(h))?
Answer: 117%

Question: What about the activity at 100 µM (CK1γ1(h)) of the same molecule?
Answer: 110%

Question: And the activity at 100 µM (MEK1(h))?
Answer: 86%

Question: What about the activity at 100 µM (PDK1(h)) of the same molecule?
Answer: 144%

Question: And the activity at 100 µM (Pim-1(h))?
Answer: 44%

Question: What about the activity at 100 µM (Lyn(h)) of the same molecule?
Answer: 113%

Question: What about the activity at 100 µM (MAPK2(h)) of the same molecule?
Answer: 98%

Question: And the activity at 100 µM (FGFR2(h))?
Answer: 49%

Question: And the activity at 100 µM (BTK(h))?
Answer: 112%

Question: And the activity at 100 µM (MST1(h))?
Answer: 85%

Question: What about the activity at 100 µM (SAPK3(h)) of the same molecule?
Answer: 106%

Question: What about the activity at 100 µM (Flt3(h)) of the same molecule?
Answer: 104%

Question: And the activity at 100 µM (c-RAF(h))?
Answer: 97%

Question: What about the activity at 100 µM (CDK6/cyclinD3(h)) of the same molecule?
Answer: 103%

Question: And the activity at 100 µM (AMPKa1(h))?
Answer: 107%

Question: What about the activity at 100 µM (SAPK4(h)) of the same molecule?
Answer: 98%

Question: And the activity at 100 µM (NEK7(h))?
Answer: 97%

Question: And the activity at 100 µM (SIK(h))?
Answer: 113%

Question: What about the activity at 100 µM (LKB1(h)) of the same molecule?
Answer: 111%

Question: And the activity at 100 µM (CK1δ(h))?
Answer: 115%

Question: And the activity at 100 µM (AMPKa2(h))?
Answer: 121%

Question: And the activity at 100 µM (eEF-2K(h))?
Answer: 113%

Question: And the activity at 100 µM (SAPK2a(h))?
Answer: 110%

Question: And the activity at 100 µM (MST3(h))?
Answer: 104%

Question: What about the activity at 100 µM (PDGFRβ(h)) of the same molecule?
Answer: 116%

Question: And the activity at 100 µM (CDK9/cyclin T1(h))?
Answer: 228%

Question: What about the activity at 100 µM (NEK6(h)) of the same molecule?
Answer: 109%

Question: What about the activity at 100 µM (VRK2(h)) of the same molecule?
Answer: 112%

Question: What about the activity at 100 µM (IRAK1(h)) of the same molecule?
Answer: 97%

Question: What about the activity at 100 µM (IGF-1R(h)) of the same molecule?
Answer: 102%

Question: And the activity at 100 µM (Met(D1246N)(h))?
Answer: 114%

Question: What about the activity at 100 µM (PKCβI(h)) of the same molecule?
Answer: 88%

Question: And the activity at 100 µM (Tie2(R849W)(h))?
Answer: 102%
